Earlier results in patent US5625061A, “Compounds useful in preparing antiproliferative agents and garft inhibitors” (Agouron Pharmaceuticals, Inc., priority 1995, dated 1997).

Tested on: tumor
Details: F. M. Muggia, New Drugs, 1992; cited from earlier work

For `Nc1nc2c(c(=O)[nH]1)CC(CCc1ccc(C(=O)N[C@@H](CCC(=O)O)C(=O)O)cc1)CN2` (stereo partly shown) [5,10-dideazatetrahydrofolic acid], the “antitumor activity (in words)” value is given as “antitumor activity”.
